Experimental data from patent publication US20100273696A1, “Composition and method for the prevention and removal of unwanted paint on a surface” (priority 2009, published 2010).

Experiment: Toxicity (hazard class) of possible ingredients
Settings: hazard symbol or 'none'

## CN1CCN(C)C1=O [1,3-dimethyl-2-imidazolidinone]
  Toxicity: none
